Data: patent US9518026B2, “5-aminopyrazole-4-carboxamide inhibitors of CDPK1 from T. gondii and C. parvum” (UNIVERSITY OF WASHINGTON THROUGH ITS CENTER FOR …, priority 2013, dated 2016)

Amino acid sequences for entries named in this document (tags omitted). A change or cut given only in a name is not applied to a line headed by its entry. Residues count along the entry.
UniProt P12931: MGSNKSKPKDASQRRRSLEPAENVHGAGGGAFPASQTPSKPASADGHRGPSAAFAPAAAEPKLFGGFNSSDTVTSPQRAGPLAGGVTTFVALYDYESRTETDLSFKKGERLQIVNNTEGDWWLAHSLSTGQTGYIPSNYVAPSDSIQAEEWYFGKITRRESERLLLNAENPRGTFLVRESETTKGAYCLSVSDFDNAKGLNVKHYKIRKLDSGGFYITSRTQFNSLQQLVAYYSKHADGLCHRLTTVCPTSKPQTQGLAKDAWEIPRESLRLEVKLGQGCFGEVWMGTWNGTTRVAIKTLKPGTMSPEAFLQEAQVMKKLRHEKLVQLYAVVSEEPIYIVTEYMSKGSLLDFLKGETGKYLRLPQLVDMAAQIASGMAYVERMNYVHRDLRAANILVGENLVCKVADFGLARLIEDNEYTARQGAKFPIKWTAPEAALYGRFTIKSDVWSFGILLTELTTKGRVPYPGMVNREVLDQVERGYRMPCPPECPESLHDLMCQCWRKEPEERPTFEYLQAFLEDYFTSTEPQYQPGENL
UniProt P28482, whole entry, looked up, species assumed: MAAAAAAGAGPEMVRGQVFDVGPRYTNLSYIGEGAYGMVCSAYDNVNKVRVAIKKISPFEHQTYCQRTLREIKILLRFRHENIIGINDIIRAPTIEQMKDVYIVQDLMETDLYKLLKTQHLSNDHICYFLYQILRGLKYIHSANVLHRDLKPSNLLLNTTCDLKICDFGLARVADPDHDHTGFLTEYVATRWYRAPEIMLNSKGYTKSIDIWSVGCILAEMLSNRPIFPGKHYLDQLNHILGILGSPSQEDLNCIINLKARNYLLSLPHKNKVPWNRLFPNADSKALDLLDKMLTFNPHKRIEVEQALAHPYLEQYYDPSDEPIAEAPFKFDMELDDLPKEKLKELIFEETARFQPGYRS
UniProt Q9UM73, 19-1620, species assumed: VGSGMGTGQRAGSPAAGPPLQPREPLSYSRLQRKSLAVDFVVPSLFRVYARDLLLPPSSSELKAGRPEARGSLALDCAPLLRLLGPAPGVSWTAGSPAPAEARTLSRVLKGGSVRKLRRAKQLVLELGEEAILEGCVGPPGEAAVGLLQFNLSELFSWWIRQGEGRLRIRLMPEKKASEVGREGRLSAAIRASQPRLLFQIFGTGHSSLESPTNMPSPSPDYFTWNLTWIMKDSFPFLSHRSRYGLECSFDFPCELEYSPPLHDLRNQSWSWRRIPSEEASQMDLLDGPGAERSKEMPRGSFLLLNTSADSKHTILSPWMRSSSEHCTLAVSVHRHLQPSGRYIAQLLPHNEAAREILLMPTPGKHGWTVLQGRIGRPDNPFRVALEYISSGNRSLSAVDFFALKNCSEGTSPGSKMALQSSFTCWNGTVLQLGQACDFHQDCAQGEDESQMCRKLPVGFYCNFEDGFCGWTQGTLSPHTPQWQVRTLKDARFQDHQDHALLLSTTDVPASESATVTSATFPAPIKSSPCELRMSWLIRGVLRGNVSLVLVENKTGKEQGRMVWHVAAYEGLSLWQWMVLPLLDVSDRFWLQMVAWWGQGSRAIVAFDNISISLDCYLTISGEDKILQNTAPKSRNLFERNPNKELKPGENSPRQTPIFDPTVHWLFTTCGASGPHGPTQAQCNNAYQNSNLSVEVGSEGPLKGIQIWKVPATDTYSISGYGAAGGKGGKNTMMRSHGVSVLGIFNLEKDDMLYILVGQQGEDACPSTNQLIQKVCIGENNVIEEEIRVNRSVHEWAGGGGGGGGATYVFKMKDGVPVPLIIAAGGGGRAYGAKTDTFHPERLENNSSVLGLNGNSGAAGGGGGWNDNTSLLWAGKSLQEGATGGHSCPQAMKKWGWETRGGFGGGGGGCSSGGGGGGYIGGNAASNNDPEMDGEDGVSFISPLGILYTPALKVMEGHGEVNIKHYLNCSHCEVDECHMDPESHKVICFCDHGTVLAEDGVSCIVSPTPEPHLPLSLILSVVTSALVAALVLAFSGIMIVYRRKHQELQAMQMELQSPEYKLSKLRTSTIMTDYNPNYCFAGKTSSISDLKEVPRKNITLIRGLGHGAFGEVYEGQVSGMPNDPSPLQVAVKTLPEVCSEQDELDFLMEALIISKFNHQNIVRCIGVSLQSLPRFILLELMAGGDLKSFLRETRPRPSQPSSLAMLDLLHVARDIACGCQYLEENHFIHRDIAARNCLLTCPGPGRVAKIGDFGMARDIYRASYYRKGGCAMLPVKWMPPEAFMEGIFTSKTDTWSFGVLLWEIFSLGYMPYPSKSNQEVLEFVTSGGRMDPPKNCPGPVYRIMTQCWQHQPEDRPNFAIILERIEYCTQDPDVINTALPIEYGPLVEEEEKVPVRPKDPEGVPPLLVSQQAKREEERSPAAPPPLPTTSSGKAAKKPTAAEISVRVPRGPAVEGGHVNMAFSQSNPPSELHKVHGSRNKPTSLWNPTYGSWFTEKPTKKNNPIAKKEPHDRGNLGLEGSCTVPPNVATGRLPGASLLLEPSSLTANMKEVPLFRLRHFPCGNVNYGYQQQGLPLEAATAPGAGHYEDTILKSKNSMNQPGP
UniProt A3FQ16, 1-538: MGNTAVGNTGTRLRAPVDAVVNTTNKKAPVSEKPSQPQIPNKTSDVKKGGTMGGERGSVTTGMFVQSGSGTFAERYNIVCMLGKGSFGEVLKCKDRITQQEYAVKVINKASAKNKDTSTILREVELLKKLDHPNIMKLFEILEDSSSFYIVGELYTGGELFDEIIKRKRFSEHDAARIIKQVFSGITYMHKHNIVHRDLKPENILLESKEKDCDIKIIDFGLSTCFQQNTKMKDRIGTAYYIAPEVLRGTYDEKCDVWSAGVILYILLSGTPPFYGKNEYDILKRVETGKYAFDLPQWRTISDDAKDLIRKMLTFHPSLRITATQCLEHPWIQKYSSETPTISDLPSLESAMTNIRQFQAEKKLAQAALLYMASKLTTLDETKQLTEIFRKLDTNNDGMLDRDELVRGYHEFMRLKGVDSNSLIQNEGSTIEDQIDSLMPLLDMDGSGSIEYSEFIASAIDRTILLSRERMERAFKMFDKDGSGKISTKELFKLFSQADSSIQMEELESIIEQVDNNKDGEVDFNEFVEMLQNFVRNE

Biological target: Src (Homo sapiens (Human), UniProt P12931)
Assay: biochemical
Conditions: Enzyme Inhibition (IC50, μM) SrcKD, Table 4

For `CCOc1ccc2cc(-c3nn(C(C)(C)C)c(N)c3C(N)=O)cnc2c1` [Compound 39, 5-amino-1-(tert-butyl)-3-(7-ethoxyquinolin-3-yl)-1H-pyrazole-4-carboxamide], which IC50 is on record?
The IC50 was over 10 µM.

Biological target: Erk2 (Homo sapiens (Human), UniProt P28482)
Assay: Kinase panel selectivity: Erk2
Assay type: biochemical
Conditions: not given

Which IC50 does the source give for `CCOc1ccc2cc(-c3nn(C(C)(C)C)c(N)c3C(N)=O)cnc2c1` [Compound 39, 5-amino-1-(tert-butyl)-3-(7-ethoxyquinolin-3-yl)-1H-pyrazole-4-carboxamide] here?
Its IC50 is over 10 µM.

Biological target: ALK (Homo sapiens (Human), UniProt Q9UM73)
Assay: Kinase panel selectivity: ALK
Assay type: biochemical
Conditions: not given

For `CCOc1ccc2cc(-c3nn(C(C)(C)C)c(N)c3C(N)=O)cnc2c1` [Compound 39, 5-amino-1-(tert-butyl)-3-(7-ethoxyquinolin-3-yl)-1H-pyrazole-4-carboxamide], which IC50 is on record?
The IC50 was over 10 µM.

Biological target: CpCDPK1 (Cryptosporidium parvum (strain Iowa II), UniProt A3FQ16)
Assay: biochemical
Conditions: Table 1; KinaseGlo, Syntide 2 peptide substrate

With `CCOc1ccc2cc(-c3nn(CC4CCN(C)CC4)c4ncnc(N)c34)ccc2c1` [Compound 9, 3-(6-ethoxynaphthalen-2-yl)-1-((1-methylpiperidin-4-yl)methyl)-1H-pyrazolo[3,4-d]pyrimidin-4-amine, reference compound] as the compound, how does the IC50 read?
The IC50 was 0.001 µM.

Which IC50 does the source give for `Cc1oc2ccccc2c1-c1nn(C(C)(C)C)c(N)c1C(N)=O` [Compound 27, 5-amino-1-(tert-butyl)-3-(2-methylbenzofuran-3-yl)-1H-pyrazole-4-carboxamide] here?
The IC50 was 2.3 µM.

How did the IC50 turn out when `Cn1nc(N)c2ccc(-c3nn(C(C)(C)C)c(N)c3C(N)=O)cc21` [Compound 29, 3-(3-amino-1-methyl-1H-indazol-6-yl)-1-(tert-butyl)-1H-pyrazole-4-carboxamide] was run?
The IC50 was 0.2 µM.

Which IC50 does the source give for `Cn1c(N)nc2cc(-c3nn(C(C)(C)C)c(N)c3C(N)=O)ccc21` [Compound 33, 5-amino-3-(2-amino-1-methyl-1H-benzo[d]imidazol-5-yl)-1-(tert-butyl)-1H-pyrazole-4-carboxamide] here?
The IC50 was 0.99 µM.

With `Cc1ccc2cc(-c3nn(C(C)(C)C)c(N)c3C(N)=O)cnc2c1` [Compound 1544, 5-amino-1-tert-butyl-3-(7-methylquinolin-3-yl)-1H-pyrazole-4-carboxamide] as the compound, how does the IC50 read?
Its IC50 is 0.011 µM.

Which IC50 does the source give for `CC(C)COc1ccc2cc(-c3nn(C(C)(C)C)c(N)c3C(N)=O)cnc2c1` [Compound 1588, 5-amino-1-(tert-butyl)-3-(7-isobutoxyquinolin-3-yl)-1H-pyrazole-4-carboxamide] here?
Its IC50 is 0.052 µM.

Which IC50 does the source give for `CCOc1ccc2cc(-c3nn(C(C)CCO)c(N)c3C(N)=O)cnc2c1` (stereo not drawn) [Compound 1608, 5-amino-3-(7-ethoxyquinolin-3-yl)-1-(4-hydroxybutan-2-yl)-1H-pyrazole-4-carboxamide] here?
Its IC50 is 0.005 µM.

How did the IC50 turn out when `NC(=O)c1c(-c2ccc3nc(OC4CCC4)ccc3c2)nn(C2CCC2)c1N` [Compound 1656, 5-amino-3-(2-cyclobutoxyquinolin-6-yl)-1-cyclobutyl-1H-pyrazole-4-carboxamide] was run?
Its IC50 is 0.003 µM.

How did the IC50 turn out when `NC(=O)c1c(-c2cnc3cc(OC4CCC4)ccc3c2)nn(C2CCC2)c1N` [Compound 1657, 5-amino-3-(7-cyclobutoxyquinolin-3-yl)-1-cyclobutyl-1H-pyrazole-4-carboxamide] was run?
Its IC50 is 0.005 µM.
